{"source": "patent US4564624A", "about": "“8-(Substituted N-phenylcarboxamidomethyl) pyrrolizidines and use thereof as antiarrhythmics” (Suntory Ltd., priority 1982, dated 1986)", "key": {"[1]": {"test_system": "ventricular arrhythmias induced by chloroform", "test": "Antiarrhythmic activity: prevention of chloroform-induced ventricular flutter and fibrillation in mice", "settings": "ratio of LD50 and ED50", "protocol": "At the time when they ceased to breathe, electrocardiogram of each animal was recorded to observe the flutter and fibrillation of the ventricle.\nThe abnormalities of ventriculus as observed in these animals can be prevented by previous administration of a substance showing antiarrhythmic activity. A compound of this invention, at various dosages, was subcutaneously injected to mice grouped by 29-40 heads. Thirty minutes later these mice were treated with chloroform to induce arrhythmias. Prophylaxis percentages of the flutter and fibrillation of ventricle for each dosage were calculated."}, "ddY strain male mice": {"test_system": "ddY strain male mice", "assay_type": "in vivo", "settings": "18-22 g, up and down method"}}, "data": [{"smiles": "Cc1cccc(C)c1NC(=O)CC12CCCN1CCC2", "note": "[Compound 12, N-(2,6-dimethylphenyl)-8-pyrrolizidineacetaminde]", "values": [{"measurement": "Therapeutic index", "setting": "[1]", "value": 17.08}, {"measurement": "LD50", "setting": "ddY strain male mice", "value": 410, "unit": "mg/kg"}]}]}
